The compounds below were run against His-ALK^G1202R/L1196M (Homo sapiens, UniProt Q9UM73, G1202R/L1196M) (assay: ALK G1202R/L1196M compound mutant kinase inhibitory activity assay (HTRF)). Conditions: read-out: ALK^G1202R/L1196M Enzyme, IC50, ATP 4 µM, enzyme 0.5 nM, 1 hour at 23 °C.

Sequences of proteins named here, by UniProt entry; tags and fusion partners are left off. Residues count along the entry.
UniProt Q9UM73, 19-1620 L1196M/G1202R limits assumed: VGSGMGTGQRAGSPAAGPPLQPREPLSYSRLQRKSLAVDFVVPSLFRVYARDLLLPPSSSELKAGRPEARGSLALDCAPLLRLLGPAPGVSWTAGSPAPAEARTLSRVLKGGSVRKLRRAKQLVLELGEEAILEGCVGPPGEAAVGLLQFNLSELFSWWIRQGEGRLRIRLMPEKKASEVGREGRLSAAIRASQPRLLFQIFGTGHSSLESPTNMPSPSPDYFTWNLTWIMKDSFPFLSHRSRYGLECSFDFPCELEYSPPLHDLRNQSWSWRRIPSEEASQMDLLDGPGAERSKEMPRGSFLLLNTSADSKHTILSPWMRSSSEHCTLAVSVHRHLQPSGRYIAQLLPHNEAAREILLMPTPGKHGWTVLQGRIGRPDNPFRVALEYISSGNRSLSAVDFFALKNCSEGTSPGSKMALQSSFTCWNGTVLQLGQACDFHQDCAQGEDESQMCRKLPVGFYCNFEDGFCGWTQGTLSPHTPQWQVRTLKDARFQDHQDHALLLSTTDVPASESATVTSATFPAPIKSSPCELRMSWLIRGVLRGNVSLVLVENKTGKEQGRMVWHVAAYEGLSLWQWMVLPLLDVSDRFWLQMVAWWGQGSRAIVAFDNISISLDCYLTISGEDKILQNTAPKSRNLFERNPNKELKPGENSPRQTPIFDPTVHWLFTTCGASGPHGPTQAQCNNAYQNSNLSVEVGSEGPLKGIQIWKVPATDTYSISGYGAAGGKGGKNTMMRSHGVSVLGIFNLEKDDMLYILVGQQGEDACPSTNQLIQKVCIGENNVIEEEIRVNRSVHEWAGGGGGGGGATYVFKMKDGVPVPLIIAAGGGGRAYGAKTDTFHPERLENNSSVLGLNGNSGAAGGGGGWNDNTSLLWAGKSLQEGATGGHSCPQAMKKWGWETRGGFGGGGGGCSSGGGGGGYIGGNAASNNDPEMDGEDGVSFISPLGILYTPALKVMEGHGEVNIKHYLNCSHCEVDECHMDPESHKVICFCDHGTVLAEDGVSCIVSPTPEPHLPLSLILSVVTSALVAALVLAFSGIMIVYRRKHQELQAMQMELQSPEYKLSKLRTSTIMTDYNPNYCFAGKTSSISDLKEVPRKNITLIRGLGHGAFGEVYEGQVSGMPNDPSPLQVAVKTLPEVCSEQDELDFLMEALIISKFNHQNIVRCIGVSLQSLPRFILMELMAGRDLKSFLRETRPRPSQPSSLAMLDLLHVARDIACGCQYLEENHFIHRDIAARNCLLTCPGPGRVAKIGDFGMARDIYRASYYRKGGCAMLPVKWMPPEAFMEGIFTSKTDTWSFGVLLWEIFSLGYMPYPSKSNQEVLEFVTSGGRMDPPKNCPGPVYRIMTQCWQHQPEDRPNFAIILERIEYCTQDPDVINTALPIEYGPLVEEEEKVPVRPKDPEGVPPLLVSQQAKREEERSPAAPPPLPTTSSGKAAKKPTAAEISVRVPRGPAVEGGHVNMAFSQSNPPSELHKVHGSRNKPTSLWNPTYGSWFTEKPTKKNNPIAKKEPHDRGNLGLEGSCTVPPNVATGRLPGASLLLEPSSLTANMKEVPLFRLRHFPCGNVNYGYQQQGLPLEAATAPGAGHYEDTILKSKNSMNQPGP

| Structure (SMILES) | IC50 [nM] |
| --- | --- |
| CCn1nc(C#Cc2ccc(Cl)cc2)c2c1-c1cnc(N)c(c1)O[C@H](C)c1cc(F)ccc1-c1nn(C)cc1C2 | < 5 |
| CCn1nc(C#Cc2cccnc2)c2c1-c1cnc(N)c(c1)O[C@H](C)c1cc(F)ccc1-c1nn(C)nc1C2 | < 5 |
| CCn1nc(C#CC2(O)CNC2)c2c1-c1cnc(N)c(c1)O[C@H](C)c1cc(F)ccc1-c1nn(C)nc1C2 | < 5 |
| CCn1nc(C#CC(=O)N(C)C)c2c1-c1cnc(N)c(c1)O[C@H](C)c1cc(F)ccc1-c1nn(C)cc1C2 | < 5 |
| CCn1nc(C#CC(C)(C)NC(=O)NC)c2c1-c1cnc(N)c(c1)O[C@H](C)c1cc(F)ccc1-c1nn(C)cc1C2 | < 5 |
| CCn1nc(C#Cc2cccnc2N)c2c1-c1cnc(N)c(c1)O[C@H](C)c1cc(F)ccc1-c1nn(C)cc1C2 | < 5 |
| C#Cc1nn(CC)c2c1Cc1scnc1-c1ccc(F)cc1[C@@H](C)Oc1cc-2cnc1N | < 5 |
| CCn1nc(C#Cc2cccc(=O)[nH]2)c2c1-c1cnc(N)c(c1)O[C@H](C)c1cc(F)ccc1-c1nn(C)cc1C2 | < 5 |
| CCn1nc(C#CC(=O)NC)c2c1-c1cnc(N)c(c1)O[C@H](C)c1cc(F)ccc1-c1nn(C)cc1C2 | < 5 |
| CCn1nc(C#Cc2ncccn2)c2c1-c1cnc(N)c(c1)O[C@H](C)c1cc(F)ccc1-c1nn(C)cc1C2 | < 5 |
| CCn1nc(C#Cc2ccc(C(C)(C)O)cn2)c2c1-c1cnc(N)c(c1)O[C@H](C)c1cc(F)ccc1-c1nn(C)cc1C2 | < 5 |
| CCn1nc(C#Cc2ccc(=O)[nH]c2)c2c1-c1cnc(N)c(c1)O[C@H](C)c1cc(F)ccc1-c1nn(C)cc1C2 | < 5 |
| CCn1nc(C#Cc2ccn(C)c2)c2c1-c1cnc(N)c(c1)O[C@H](C)c1cc(F)ccc1-c1nn(C)cc1C2 | < 5 |
| CCn1ncc2c1-c1cnc(N)c(c1)O[C@H](C(F)(F)F)c1cc(F)ccc1-c1nn(C)nc1C2 | < 5 |
| CCn1nc(N=S2(=O)CC3(CCC3)C2)c2c1-c1cnc(N)c(c1)O[C@H](C)c1cc(F)ccc1-c1nn(C)cc1C2 | < 5 |
| CCn1nc(/C=C/c2cccnc2)c2c1-c1cnc(N)c(c1)O[C@H](C)c1cc(F)ccc1-c1nn(C)nc1C2 | < 5 |
| CCn1nc(C#CC(C)(C)NC(C)=O)c2c1-c1cnc(N)c(c1)O[C@H](C)c1cc(F)ccc1-c1nn(C)cc1C2 | < 5 |
| CCn1nc(C#Cc2cn(C3CC3)cn2)c2c1-c1cnc(N)c(c1)O[C@H](C)c1cc(F)ccc1-c1nn(C)cc1C2 | < 5 |
| CCn1nc(C#CC2CCCCC2)c2c1-c1cnc(N)c(c1)O[C@H](C)c1cc(F)ccc1-c1nn(C)cc1C2 | < 5 |
| C#Cc1c2c(nn1C)-c1ccc(F)cc1[C@@H](C)Oc1cc(cnc1N)-c1c(cnn1CC)C2 | < 5 |
| CCn1nc(C#CC(C)(C)NS(=O)(=O)C(F)(F)F)c2c1-c1cnc(N)c(c1)O[C@H](C)c1cc(F)ccc1-c1nn(C)cc1C2 | < 5 |
| C=CCc1nn(CC)c2c1Cc1cn(C(F)F)nc1-c1ccc(F)cc1[C@@H](C)Oc1cc-2cnc1N | < 5 |
| CCn1nc(C#Cc2ccncc2)c2c1-c1cnc(N)c(c1)O[C@H](C)c1cc(F)ccc1-c1nn(C)cc1C2 | < 5 |
| CCn1nc(N=S(C)(=O)C2CC2)c2c1-c1cnc(N)c(c1)O[C@H](C)c1cc(F)ccc1-c1nn(C)cc1C2 (stereo partly shown) | < 5 |
| C#CCC1Oc2cc(cnc2N)-c2c(cnn2CC)Cc2nn(C)nc2-c2ccc(F)cc21 (stereo not shown) | < 5 |
| CCn1nc(C#Cc2ccn3nccc3c2)c2c1-c1cnc(N)c(c1)O[C@H](C)c1cc(F)ccc1-c1nn(C)cc1C2 | < 5 |

| Structure (SMILES) | IC50 [nM] |
| --- | --- |
| CCn1nc(C#Cc2ccc(OC)cn2)c2c1-c1cnc(N)c(c1)O[C@H](C)c1cc(F)ccc1-c1nn(C)cc1C2 | < 5 |
| CCn1nc(C#Cc2ccc(F)cc2)c2c1-c1cnc(N)c(c1)O[C@H](C)c1cc(F)ccc1-c1nn(C)cc1C2 | < 5 |
| CCn1nc(C#Cc2cc[nH]c(=O)c2)c2c1-c1cnc(N)c(c1)O[C@H](C)c1cc(F)ccc1-c1nn(C)cc1C2 | < 5 |
| CCn1nc(C#Cc2scnc2C)c2c1-c1cnc(N)c(c1)O[C@H](C)c1cc(F)ccc1-c1nn(C)cc1C2 | < 5 |
| CCn1nc(C#CC2CN(C)CCO2)c2c1-c1cnc(N)c(c1)O[C@H](C)c1cc(F)ccc1-c1nn(C)cc1C2 (stereo partly shown) | < 5 |
| C=C(F)c1nn(CC)c2c1Cc1nn(C)nc1-c1ccc(F)cc1[C@@H](C)Oc1cc-2cnc1N | < 5 |
| CCn1nc(C#Cc2nnc(C)o2)c2c1-c1cnc(N)c(c1)O[C@H](C)c1cc(F)ccc1-c1nn(C)cc1C2 | < 5 |
| C=Cc1nn(CC)c2c1Cc1nn(C)nc1-c1ccc(F)cc1[C@@H](C)Oc1cc-2cnc1N | < 5 |
| CCn1nc(C=C(C)C)c2c1-c1cnc(N)c(c1)O[C@H](C)c1cc(F)ccc1-c1nn(C)cc1C2 | < 5 |
| CCn1nc(C#CC(C)(C)NS(=O)(=O)C2CC2)c2c1-c1cnc(N)c(c1)O[C@H](C)c1cc(F)ccc1-c1nn(C)cc1C2 | < 5 |
| C#Cc1nn(CC)c2c1Cc1nsnc1-c1ccc(F)cc1[C@@H](C)Oc1cc-2cnc1N | < 5 |
| CCn1nc(C#Cc2cnc(C(C)(C)O)nc2)c2c1-c1cnc(N)c(c1)O[C@H](C)c1cc(F)ccc1-c1nn(C)cc1C2 | < 5 |
| CCn1nc(C#CC2(O)CNC2)c2c1-c1cnc(N)c(c1)O[C@H](C)c1cc(F)ccc1-c1nn(C)cc1C2 | < 5 |
| CCn1nc(C#CCC2(O)COC2)c2c1-c1cnc(N)c(c1)O[C@H](C)c1cc(F)ccc1-c1nn(C)cc1C2 | < 5 |
| CCn1nc(C#Cc2cncn2CC(F)(F)F)c2c1-c1cnc(N)c(c1)O[C@H](C)c1cc(F)ccc1-c1nn(C)cc1C2 | < 5 |
| CCn1nc(C#Cc2cccn2C)c2c1-c1cnc(N)c(c1)O[C@H](C)c1cc(F)ccc1-c1nn(C)cc1C2 | < 5 |
| CCn1nc(C#CC2(C#N)CCOCC2)c2c1-c1cnc(N)c(c1)O[C@H](C)c1cc(F)ccc1-c1nn(C)cc1C2 | < 5 |
| CCn1nc(C#CC2COC2)c2c1-c1cnc(N)c(c1)O[C@H](C)c1cc(F)ccc1-c1nn(C)nc1C2 | < 5 |
| CCn1nc(C#CC(C)(C)C)c2c1-c1cnc(N)c(c1)O[C@H](C)c1cc(F)ccc1-c1nn(C)cc1C2 | < 5 |
| CCn1nc(C#CC2CCNCC2)c2c1-c1cnc(N)c(c1)O[C@H](C)c1cc(F)ccc1-c1nn(C)cc1C2 | < 5 |
| CCn1ncc2c1-c1cnc(N)c(c1)O[C@H](C)c1cc(F)ccc1-c1nn(C)c(N=S(C)(C)=O)c1C2 | < 5 |
| CCn1nc(C=C2CNC2)c2c1-c1cnc(N)c(c1)O[C@H](C)c1cc(F)ccc1-c1nn(C)nc1C2 | < 5 |
| CCn1nc(C#Cc2cccc(=O)n2C)c2c1-c1cnc(N)c(c1)O[C@H](C)c1cc(F)ccc1-c1nn(C)cc1C2 | < 5 |
| CCn1nc(C#Cc2ccc(=O)n(CC(F)(F)F)c2)c2c1-c1cnc(N)c(c1)O[C@H](C)c1cc(F)ccc1-c1nn(C)cc1C2 | < 5 |
| CCn1nc(C#Cc2cccc(N)n2)c2c1-c1cnc(N)c(c1)O[C@H](C)c1cc(F)ccc1-c1nn(C)cc1C2 | < 5 |
| CCn1nc(Cl)c2c1-c1cnc(N)c(c1)N1CCCC1c1cc(F)ccc1-c1nn(C)cc1C2 (stereo not shown) | < 5 |

| Structure (SMILES) | IC50 [nM] |
| --- | --- |
| CCn1nc(C#Cc2c[nH]cn2)c2c1-c1cnc(N)c(c1)O[C@H](C)c1cc(F)ccc1-c1nn(C)cc1C2 | < 5 |
| CCn1nc(C#CC2(O)COC2)c2c1-c1cnc(N)c(c1)O[C@H](C)c1cc(F)ccc1-c1nn(C)cc1C2 | < 5 |
| C#Cc1nn(CCOC)c2c1Cc1cn(C)nc1-c1ccc(F)cc1[C@@H](C)Oc1cc-2cnc1N | < 5 |
| CCn1nc(C#CC2CCCCN2C)c2c1-c1cnc(N)c(c1)O[C@H](C)c1cc(F)ccc1-c1nn(C)cc1C2 (stereo partly shown) | < 5 |
| C=Cc1c2c(nn1C)-c1ccc(F)cc1[C@@H](C)Oc1cc(cnc1N)-c1c(cnn1CC)C2 | < 5 |
| CCn1nc(C#Cc2ccc[nH]c2=O)c2c1-c1cnc(N)c(c1)O[C@H](C)c1cc(F)ccc1-c1nn(C)cc1C2 | < 5 |
| CCn1nc(C#Cc2ccc(C#N)nc2)c2c1-c1cnc(N)c(c1)O[C@H](C)c1cc(F)ccc1-c1nn(C)cc1C2 | < 5 |
| CCn1nc(C#Cc2cnn(C(F)(F)F)c2)c2c1-c1cnc(N)c(c1)O[C@H](C)c1cc(F)ccc1-c1nn(C)cc1C2 | < 5 |
| CCn1nc(C#Cc2cn(CCOC)cn2)c2c1-c1cnc(N)c(c1)O[C@H](C)c1cc(F)ccc1-c1nn(C)cc1C2 | < 5 |
| CCn1nc(/C=C/c2ccncc2)c2c1-c1cnc(N)c(c1)O[C@H](C)c1cc(F)ccc1-c1nn(C)nc1C2 | < 5 |
| CCn1nc(C#Cc2cnn(CC(F)(F)F)c2)c2c1-c1cnc(N)c(c1)O[C@H](C)c1cc(F)ccc1-c1nn(C)cc1C2 | < 5 |
| CCn1nc(C#Cc2cc(OC)cc(OC)c2)c2c1-c1cnc(N)c(c1)O[C@H](C)c1cc(F)ccc1-c1nn(C)cc1C2 | < 5 |
| CCn1nc(C#CC(C)(C)NS(=O)(=O)C(C)C)c2c1-c1cnc(N)c(c1)O[C@H](C)c1cc(F)ccc1-c1nn(C)cc1C2 | < 5 |
| CCn1nc(C#Cc2cnc3[nH]ncc3c2)c2c1-c1cnc(N)c(c1)O[C@H](C)c1cc(F)ccc1-c1nn(C)cc1C2 | < 5 |
| CCn1nc(C#Cc2cncn2C2COC2)c2c1-c1cnc(N)c(c1)O[C@H](C)c1cc(F)ccc1-c1nn(C)cc1C2 | < 5 |
| CCn1nc(C#Cc2ccncc2)c2c1-c1cnc(N)c(c1)O[C@H](C)c1cc(F)ccc1-c1nn(C)nc1C2 | < 5 |
| CCn1nc(C#CC(C)C)c2c1-c1cnc(N)c(c1)O[C@H](C)c1cc(F)ccc1-c1nn(C)cc1C2 | < 5 |
| C#Cc1nn(C(F)F)c2c1Cc1cn(C)nc1-c1ccc(F)cc1[C@@H](C)Oc1cc-2cnc1N | < 5 |
| CCn1nc(C#Cc2cn(CC(C)(C)O)cn2)c2c1-c1cnc(N)c(c1)O[C@H](C)c1cc(F)ccc1-c1nn(C)cc1C2 | < 5 |
| CCn1nc(C#Cc2ccc(F)cn2)c2c1-c1cnc(N)c(c1)O[C@H](C)c1cc(F)ccc1-c1nn(C)cc1C2 | < 5 |
| CCn1nc(C#CC2CCCOC2)c2c1-c1cnc(N)c(c1)O[C@H](C)c1cc(F)ccc1-c1nn(C)cc1C2 (stereo partly shown) | < 5 |
| CCn1nc(C#Cc2ccc3nccn3c2)c2c1-c1cnc(N)c(c1)O[C@H](C)c1cc(F)ccc1-c1nn(C)cc1C2 | < 5 |
| CCn1nc(C#CN=S2(=O)CCCCC2)c2c1-c1cnc(N)c(c1)O[C@H](C)c1cc(F)ccc1-c1nn(C)cc1C2 | < 5 |
| CCn1nc(/C=C/COC)c2c1-c1cnc(N)c(c1)O[C@H](C)c1cc(F)ccc1-c1nn(C(F)F)cc1C2 | < 5 |

— patent publication EP4831180A1, “NOVEL KINASE INHIBITOR” (dated 2026)
